Test results reported in PMC2911641.

Molecular target: T1, IκBα-EYFP, P25963
T1 chain: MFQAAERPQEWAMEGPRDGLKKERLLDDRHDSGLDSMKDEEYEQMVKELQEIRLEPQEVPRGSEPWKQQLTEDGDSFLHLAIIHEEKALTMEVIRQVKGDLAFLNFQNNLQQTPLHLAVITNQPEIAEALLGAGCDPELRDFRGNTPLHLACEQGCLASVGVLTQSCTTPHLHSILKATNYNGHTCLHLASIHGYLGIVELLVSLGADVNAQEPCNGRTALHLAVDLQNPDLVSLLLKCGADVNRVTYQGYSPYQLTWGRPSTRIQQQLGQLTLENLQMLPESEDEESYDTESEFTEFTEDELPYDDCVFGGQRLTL
Test: FRET or BRET
Settings: remark: other sources report otherwise

B1: rsTagRFP-p65, Q04206 1-551 (natural protein)
chain: MDELFPLIFPAEPAQASGPYVEIIEQPKQRGMRFRYKCEGRSAGSIPGERSTDTTKTHPTIKINGYTGPGTVRISLVTKDPPHRPHPHELVGKDCRDGFYEAELCPDRCIHSFQNLGIQCVKKRDLEQAISQRIQTNNNPFQVPIEEQRGDYDLNAVRLCFQVTVRDPSGRPLRLPPVLSHPIFDNRAPNTAELKICRVNRNSGSCLGGDEIFLLCDKVQKEDIEVYFTGPGWEARGSFSQADVHRQVAIVFRTPPYADPSLQAPVRVSMQLRRPSDRELSEPMEFQYLPDTDDRHRIEEKRKRTYETFKSIMKKSPFSGPTDPRPPPRRIAVPSRSSASVPKPAPQPYPFTSSLSTINYDEFPTMVFPSGQISQASALAPAPPQVLPQAPAPAPAPAMVSALAQAPAPVPVLAPGPPQAVAPPAPKPTQAGEGTLSEALLQLQFDDEDLGALLGNSTDPAVFTDLASVDNSEFQQLLNQGIPVAPHTTEPMLMEYPEAITRLVTGAQRPPDPAPAPLGAPGLPNGLLSGDEDFSSIADMDFSALLSQISS
Binder B1 has an increase of donor (IκBα-EYFP) fluorescence on switching the acceptor OFF of 6 to 7%.
